Consider one compound from patent publication US11254720B2, “Methods and systems for designing and/or characterizing soluble lipidated ligand agents” (Tufts Medical Center, priority 2013, dated 2022).

In the assay the test system is HEK293 cells transfected with vector control (pcDNA1.1). Put plainly: Luciferase reporter assay in cells transfected with vector control. The format is cell-based, human. Conditions: cells transfected with pcDNA1.1 vector control.

In the case of `CCCCCCCCCCCCCCCC(=O)NCCOCCOCCOCCOCCOCCOCCOCCOCCC(=O)N[C@@H](CCCCN)C(=O)NCC(=O)NCC(=O)N[C@@H](Cc1ccc(O)cc1)C(=O)N[C@@H](Cc1ccccc1)C(=O)N1CCC[C@H]1C(=O)NCC(=O)N[C@@H](CCC(N)=O)C(=O)N[C@@H](Cc1ccccc1)C(=O)N[C@@H](C)C(=O)N[C@@H](Cc1ccccc1)C(=O)N[C@@H](CO)C(=O)O` [I-Chem 149-157], the “Agonist activity without CMKLR1 expression” value was “no agonist activity”.
